According to US20230201364A1:

Assays:
Biotin hu TNFa (human) = Biotin hu TNFa (human) (UniProt P01375); test: ELISA analogous to FIG. 3A: antibody coated, biotinylated human TNFa titrated (x axis Biotin hu TNFa, nM), OD 450nm
[1] = biological target: recombinant biotinylated human Fc gamma receptor I (FcγRI/CD64) (human) (UniProt P12314); test: as drawn: OD against the concentration of the receptor ([FcRI]nM), rising curves, panel 'FcRI - anti TNFa'; the text speaks of an AlphaLISA signal and antibody dosage
[2] = biological target: recombinant biotinylated human neonatal Fc receptor (FcRn) (human) (UniProt P55899); test: AlphaLISA competition (analogous to FIG. 5A): test antibody titrated against biotinylated human FcRn; competitor: human IgG on acceptor beads; y axis AlphaLISA FcRn-IgG binding, 0-120

| Substance | EC50 (read off the curve) (Biotin hu TNFa (human)) | EC50 (read off the curve) [1] | IC50 (read off the curve) [2] |
| --- | --- | --- | --- |
| CMP-089 (antibody; other documents disagree on this pair) | 70 pM | 50 pM |  |
| CMP-090 (antibody) |  |  | 20000 pM |
| CMP-091 (biosimilar Adalimumab) (antibody) |  |  | 8000 pM |
| CMP-091 (biosimilar Adalimumab) (antibody; other documents disagree on this pair) | 80 pM | 50 pM |  |
